# Experimental data: paper PMC9885860 (Pharmacological research, 2021)
# Chains of the proteins cited; added tags and fusions are not shown.
# UniProt P08913, whole entry: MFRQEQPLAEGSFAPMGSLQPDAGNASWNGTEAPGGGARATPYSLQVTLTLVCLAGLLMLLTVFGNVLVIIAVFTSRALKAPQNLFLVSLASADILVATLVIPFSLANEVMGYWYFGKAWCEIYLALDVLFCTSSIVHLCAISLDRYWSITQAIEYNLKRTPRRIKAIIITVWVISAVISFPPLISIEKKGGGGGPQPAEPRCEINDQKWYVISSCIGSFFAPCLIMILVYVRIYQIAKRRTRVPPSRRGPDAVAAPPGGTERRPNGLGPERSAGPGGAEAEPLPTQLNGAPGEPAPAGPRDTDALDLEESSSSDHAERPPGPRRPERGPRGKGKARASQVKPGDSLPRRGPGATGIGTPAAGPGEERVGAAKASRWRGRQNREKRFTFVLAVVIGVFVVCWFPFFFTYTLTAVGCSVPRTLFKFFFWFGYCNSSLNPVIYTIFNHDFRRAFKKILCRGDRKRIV
# UniProt P21917, whole entry: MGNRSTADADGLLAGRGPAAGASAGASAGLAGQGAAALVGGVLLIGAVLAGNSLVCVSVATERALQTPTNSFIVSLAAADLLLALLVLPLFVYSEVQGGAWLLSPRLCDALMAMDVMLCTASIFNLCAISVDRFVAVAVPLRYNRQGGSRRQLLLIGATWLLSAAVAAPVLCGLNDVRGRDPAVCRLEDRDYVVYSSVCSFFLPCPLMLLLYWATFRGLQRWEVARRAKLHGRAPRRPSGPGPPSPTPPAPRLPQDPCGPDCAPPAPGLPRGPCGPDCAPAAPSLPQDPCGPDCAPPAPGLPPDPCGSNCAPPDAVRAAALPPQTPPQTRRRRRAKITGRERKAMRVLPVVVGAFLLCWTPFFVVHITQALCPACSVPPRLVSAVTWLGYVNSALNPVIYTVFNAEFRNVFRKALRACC
# Legend:
# α2AR-D4.4R = α2AR-D4.4R (Homo sapiens, UniProt P08913+P21917); assay: CODA-RET Gαi1 activation, α2AR-D4.4R heteromer; format: cell-based; conditions: cells pretreated with antagonist
# α2AR-D4.7R = α2AR-D4.7R (Homo sapiens, UniProt P08913+P21917); assay: CODA-RET Gαi1 activation, α2AR-D4.7R heteromer; format: cell-based; conditions: cells pretreated with antagonist
structure (smiles),measurement,setting,value
"Cl.Cl.Cl.Clc1ccc(N2CCN(Cc3c[nH]c4ncccc34)CC2)cc1 [L745,870, L-745,870 trihydrochloride]",antagonist effect on NE- and DA-induced Gαi1 activation,α2AR-D4.4R,decreased significantly the effect of DA and NE
same,antagonist effect on NE- and DA-induced Gαi1 activation,α2AR-D4.7R,lack of antagonistic effects
